{
  "sequences": {"note": "Amino acid sequences for entries named in this document (tags omitted). A change or cut given only in a name is not applied to a line headed by its entry.", "UniProt Q2M2I8": "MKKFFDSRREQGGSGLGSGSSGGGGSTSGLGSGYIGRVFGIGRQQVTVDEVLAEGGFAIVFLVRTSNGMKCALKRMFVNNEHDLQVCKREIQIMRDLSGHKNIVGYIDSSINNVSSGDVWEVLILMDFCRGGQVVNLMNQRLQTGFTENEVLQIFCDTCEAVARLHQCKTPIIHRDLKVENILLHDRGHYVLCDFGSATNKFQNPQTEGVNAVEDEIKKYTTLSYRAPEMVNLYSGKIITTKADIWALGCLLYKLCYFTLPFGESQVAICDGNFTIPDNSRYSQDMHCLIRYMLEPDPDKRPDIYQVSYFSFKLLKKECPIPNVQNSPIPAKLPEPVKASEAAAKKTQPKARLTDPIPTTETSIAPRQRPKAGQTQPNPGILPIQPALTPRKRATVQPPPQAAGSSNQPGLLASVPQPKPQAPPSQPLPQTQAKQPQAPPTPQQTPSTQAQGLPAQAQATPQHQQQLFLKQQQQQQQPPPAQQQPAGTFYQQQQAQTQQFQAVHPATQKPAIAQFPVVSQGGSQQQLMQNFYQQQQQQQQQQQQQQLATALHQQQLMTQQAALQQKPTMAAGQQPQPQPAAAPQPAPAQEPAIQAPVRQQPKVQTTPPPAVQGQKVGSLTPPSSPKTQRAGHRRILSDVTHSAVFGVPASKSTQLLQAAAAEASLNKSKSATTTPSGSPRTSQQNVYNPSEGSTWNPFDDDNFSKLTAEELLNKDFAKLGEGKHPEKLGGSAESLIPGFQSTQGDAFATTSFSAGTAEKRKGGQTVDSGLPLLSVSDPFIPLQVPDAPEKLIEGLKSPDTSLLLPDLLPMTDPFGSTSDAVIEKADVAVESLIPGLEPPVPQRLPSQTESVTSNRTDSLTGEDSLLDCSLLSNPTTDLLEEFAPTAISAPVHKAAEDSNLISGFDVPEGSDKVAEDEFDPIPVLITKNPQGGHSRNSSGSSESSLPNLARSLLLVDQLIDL"},
  "source": "patent US10035777B2",
  "about": "“Heterocyclic kinase inhibitors” (priority 2014, dated 2018)",
  "biological_target": "GST-Xa-hAAK1 (Homo sapiens (Human), UniProt Q2M2I8)",
  "assay": "biochemical",
  "method": "The assays were performed in U-bottom 384-well plates. […] The reactions were initiated by the combination of bacterially expressed, GST-Xa-hAAK1 with substrates and test compounds. The reactions were incubated at room temperature for 3 hours and terminated by adding 60 μl of 35 mM EDTA buffer to each sample. The reactions were analyzed on the Caliper LabChip 3000 (Caliper, Hopkinton, Mass.) by electrophoretic separation of the fluorescent substrate and phosphorylated product. […] Compounds were dissolved at 10 mM in dimethylsulfoxide (DMSO) and evaluated at eleven concentrations. IC50 values were derived by non-linear regression analysis.",
  "data": [
    {"smiles": "CN[C@@H](c1nc2cc(-c3ccncc3)ccc2[nH]1)C1CCCCC1", "note": "[Example 60, (R)-1-Cyclohexyl-N-methyl-1-(5-(pyridin-4-yl)-1H-benzo[d]imidazol-2-yl)methanamine]", "values": [
      {"measurement": "IC50", "value": 8, "unit": "nM"}
    ]}
  ]
}
